For the series the following is noted: OSA supplementation together with inadequate Zn supplementation (low Zn diet).

For the substance orthosilicic acid [OSA], the Zn in serum result was “decreased”.

The values above are taken from patent US9078465B2, “Choline-silicic acid complex with osmolytes and divalent trace elements” (Bio Minerals N.V., priority 2002, dated 2015).
